Assay results reported in patent US20080076760A1, “2,3,4,5-TETRAHYDRO-1H-1,5-BENZODIAZEPINE DERIVATIVE AND MEDICINAL COMPOSITION” (priority 2004, published 2008).
pKi: −log10 of the molar value.

Sequences of proteins named here, by UniProt entry; tags and fusion partners are left off.
UniProt P30518, whole entry: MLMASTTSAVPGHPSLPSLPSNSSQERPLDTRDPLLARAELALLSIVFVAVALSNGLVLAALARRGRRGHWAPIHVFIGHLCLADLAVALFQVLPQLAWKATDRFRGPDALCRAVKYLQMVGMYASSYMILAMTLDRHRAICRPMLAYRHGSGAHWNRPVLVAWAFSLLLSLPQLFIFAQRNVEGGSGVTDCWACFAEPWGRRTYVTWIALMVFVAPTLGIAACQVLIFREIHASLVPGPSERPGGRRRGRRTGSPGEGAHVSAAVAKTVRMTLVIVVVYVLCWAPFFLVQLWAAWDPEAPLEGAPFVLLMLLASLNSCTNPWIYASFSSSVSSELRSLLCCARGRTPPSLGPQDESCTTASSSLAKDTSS
UniProt P37288, whole entry: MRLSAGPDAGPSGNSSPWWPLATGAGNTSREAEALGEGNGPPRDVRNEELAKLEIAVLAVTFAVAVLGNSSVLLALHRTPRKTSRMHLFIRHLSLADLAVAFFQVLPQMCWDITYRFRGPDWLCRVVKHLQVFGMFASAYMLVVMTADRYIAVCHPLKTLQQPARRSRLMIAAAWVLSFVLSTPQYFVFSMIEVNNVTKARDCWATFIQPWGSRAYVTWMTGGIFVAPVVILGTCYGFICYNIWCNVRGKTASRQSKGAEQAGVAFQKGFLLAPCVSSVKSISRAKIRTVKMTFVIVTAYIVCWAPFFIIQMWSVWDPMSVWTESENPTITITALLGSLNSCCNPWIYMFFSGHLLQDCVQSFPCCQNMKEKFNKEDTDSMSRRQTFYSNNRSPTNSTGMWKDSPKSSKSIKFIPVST

Columns and labels:
[1] = molecular target: human vasopressin V2 receptor (Homo sapiens, UniProt P30518); test: Receptor binding study, [3H]AVP displacement on CHO cell membranes, human V2; conditions: read-out: Human V2 Ki, CHO cell membrane, 25° C., one hour
[2] = molecular target: human vasopressin V1a receptor (Homo sapiens, UniProt P37288); test: Receptor binding study, [3H]AVP displacement on CHO cell membranes, human V1a; conditions: read-out: Human V1a Ki, CHO cell membrane, 25° C., one hour

Q: With `CC1CCN(C(=O)c2ccc(-c3ccc4[nH]ccc4c3)c(OCCCN3CCCC3=O)c2)c2ccccc2N1` (centres unmarked) as the compound, how does the pKi [1] read?
A: 8.62

Q: And the pKi [2]?
A: 9.44
